## AlphaSeq binding of Ab-14 heavy chain variants to a spike HR2 peptide

The target is the same throughout: PDVDLGDISGINAS, from the HR2 region of SARS-CoV-2 spike.

Parent scFv Ab-14: VH joined to VL by the linker GGGGSGGGGSGGGGS. Changes lie in the heavy chain CDRs alone.
VH: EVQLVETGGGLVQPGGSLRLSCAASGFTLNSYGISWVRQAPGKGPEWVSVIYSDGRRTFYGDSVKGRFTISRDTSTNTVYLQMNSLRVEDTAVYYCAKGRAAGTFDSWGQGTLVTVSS
VL: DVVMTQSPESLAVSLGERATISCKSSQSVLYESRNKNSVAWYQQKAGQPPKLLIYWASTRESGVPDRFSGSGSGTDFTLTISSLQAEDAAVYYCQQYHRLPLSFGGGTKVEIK

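Phage display of a naive human antibody library on the peptide gave the parent. The library (AAYL49) carries one to three amino acid substitutions per variant, with no insertions or deletions. AlphaSeq pools MATa yeast showing the antibodies with MATalpha yeast showing the peptide. After mating in shaken culture at 30 °C for 16 h, diploids were selected and their barcode pairs sequenced. A regression on co-assayed BCL2-family reference pairs converts the normalised counts of each replicate to an apparent Kd. Each pool was mated in three replicate cultures.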

Changes read parent residue, position, new residue, counted from the first residue of the VH shown. The read-out is the apparent dissociation constant on a log10 scale (nM): the lower, the stronger. Replicates are averaged; those with no signal do not enter the mean. An entry "nd" has no value in the source: the pair was not observed among the diploids in that replicate. This suggests poor binding but is not conclusive. As a blank, each scFv also met three strains without target: over library AAYL49, 15% of these pairings were detected, typically at 4.06 and seldom below 2.83. The control count says in how many pairings with the empty strains this scFv gave a signal, with their mean in brackets.

| # | changes | replicates, log10 nM | mean log10 Kd (nM) | empty controls |
|---|---|---|---|---|
| 1 | T28A+G33W+S107Y | 4.22 / 5.27 / nd | 4.75 | 3/9 (3.93) |
| 2 | G33Q+Y60I+D62K | nd / nd / nd | nd | 0/9 |
| 3 | V50Y | 4.10 / nd / 5.18 | 4.64 | 5/9 (4.55) |
| 4 | Y32W+D54H+F59M | 3.41 / 3.51 / 4.68 | 3.87 | 3/9 (4.60) |
| 5 | S31L+V50M+G103D | 6.14 / 5.32 / nd | 5.73 | 3/9 (3.99) |
| 6 | D54C+V64N+F105C | nd / nd / nd | nd | 3/9 (4.98) |
| 7 | Y32F+S35A+D54E | nd / nd / nd | nd | 0/9 |
| 8 | V50P+D62E | 4.70 / 4.23 / 4.27 | 4.40 | 8/9 (4.31) |
| 9 | G26L+A102K | 2.16 / 2.41 / 2.47 | 2.35 | 2/9 (3.37) |
| 10 | Y52M+Y60Q+S107N | nd / nd / nd | nd | 0/9 |
| 11 | S53G+G55M+R57S | nd / 5.21 / nd | 5.21 | 1/9 (5.04) |
| 12 | F27S+I51Y+F105A | 5.57 / nd / 5.89 | 5.73 | 6/9 (4.36) |
| 13 | Y32H+I51S+R100I | nd / nd / nd | nd | 1/9 (3.90) |
| 14 | L29V+S35Q+F59M | nd / 4.34 / nd | 4.34 | 0/9 |
| 15 | V50S+S53C+D62N | nd / 4.68 / nd | 4.68 | 2/9 (3.75) |
| 16 | D54R+K65G+A102V | nd / nd / nd | nd | 1/9 (2.75) |
| 17 | G33H+D54P+G103R | nd / nd / nd | nd | 2/9 (3.90) |
| 18 | L29T+N30T+F105W | 3.31 / 2.44 / 2.85 | 2.87 | 1/9 (3.69) |
| 19 | F27Y+D62P+A101L | 2.67 / 2.08 / 2.51 | 2.42 | 0/9 |
| 20 | L29M+G61M+A102Q | nd / nd / nd | nd | 1/9 (3.04) |
| 21 | Y32Q+I51E+Y60S | nd / nd / nd | nd | 0/9 |
| 22 | L29N+R57M+S107A | 4.44 / 4.14 / nd | 4.29 | 2/9 (4.32) |
| 23 | Y60T+F105R+D106L | 3.33 / nd / nd | 3.33 | 0/9 |
| 24 | D54A+R100Q+T104F | 3.29 / 5.03 / nd | 4.16 | 1/9 (4.61) |
| 25 | L29E+A101S+S107K | nd / 3.08 / nd | 3.08 | 0/9 |
| 26 | G33S+I51T+S53W | 4.08 / 2.98 / nd | 3.53 | 3/9 (4.72) |
| 27 | G26Y+G99E+G103L | nd / nd / 3.30 | 3.30 | 2/9 (4.32) |
| 28 | G26S+R57P+Y60E | nd / nd / nd | nd | 1/9 (3.70) |
| 29 | G33E+G55N+G99D | nd / nd / nd | nd | 0/9 |
| 30 | Y52H+G103I+T104K | nd / nd / 3.32 | 3.32 | 0/9 |
| 31 | T58R+F59C | 3.07 / 3.20 / 2.67 | 2.98 | 0/9 |
| 32 | G26P+S31P+T104K | nd / nd / 6.00 | 6.00 | 1/9 (3.73) |
| 33 | R56D+G99Q+D106M | nd / nd / nd | nd | 3/9 (4.44) |
| 34 | G61H+D106K+S107F | 0.76 / 1.12 / 0.98 | 0.96 | 3/9 (4.45) |
| 35 | I51A+T104M | 3.24 / 4.72 / 3.57 | 3.84 | 1/9 (3.86) |
| 36 | D62K | 2.38 / 2.85 / 1.96 | 2.40 | 1/9 (4.45) |
| 37 | Y32M+Y52G+R56Y | nd / nd / nd | nd | 0/9 |
| 38 | I34R+R100T | nd / nd / nd | nd | 3/9 (4.14) |
| 39 | L29M+R57Y+D106H | nd / 3.98 / nd | 3.98 | 2/9 (3.75) |
| 40 | S35P+Y52G+K65T | nd / nd / nd | nd | 0/9 |
| 41 | T28D+D62R | 3.06 / nd / nd | 3.06 | 0/9 |
| 42 | F27G+S35C+S53T | nd / nd / 3.85 | 3.85 | 2/9 (2.93) |

A selection of 3 entries from above:

| changes | replicates, log10 nM | mean log10 Kd (nM) | empty controls |
|---|---|---|---|
| T28D+D62R | 3.06 / nd / nd | 3.06 | 0/9 |
| Y32F+S35A+D54E | nd / nd / nd | nd | 0/9 |
| L29E+A101S+S107K | nd / 3.08 / nd | 3.08 | 0/9 |

Data: MIT Lincoln Laboratory AlphaSeq set, Engelhart et al. 2022, doi:10.1038/s41597-022-01779-4, as distributed in FLAb.